# Yeast mating assay B: variants of the scFv Ab-14

Source: Li et al. 2023 (doi:10.1038/s41467-023-39022-2), MIT Lincoln Laboratory and A-Alpha Bio; data file from the FLAb repository.

Antigen: PDVDLGDISGINAS, a 14-residue peptide of the SARS-CoV-2 spike HR2 region.

Parent: Ab-14, a human scFv built as VH, a 15-residue (Gly4Ser)3 linker, VL. Only the CDRs of the heavy chain vary.
VH: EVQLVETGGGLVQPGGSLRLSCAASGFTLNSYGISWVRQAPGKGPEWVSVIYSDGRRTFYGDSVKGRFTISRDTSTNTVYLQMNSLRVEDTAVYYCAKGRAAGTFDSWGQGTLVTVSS
VL: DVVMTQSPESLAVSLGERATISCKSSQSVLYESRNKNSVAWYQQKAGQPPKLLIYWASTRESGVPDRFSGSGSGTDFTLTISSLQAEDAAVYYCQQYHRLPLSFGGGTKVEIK

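The parent was found by panning a naive human phage display library on the peptide. This is the validation round: designs drawn from the data on random variants, tested in the same kind of assay. Group labels follow the data file (Ctrl: baseline library sampled from a position-specific scoring matrix, with some repeated check sequences; Rand: our label for a block that the file lists under HC and that is probably the random mutants of the ten best first-round binders; En: ensemble of fine-tuned language models; GP: Gaussian process model; GPLM: also part of the Gaussian process libraries; HC: hill climbing; Gen: genetic algorithm; Gibbs: Gibbs sampling; a sequence that several methods proposed may carry one label only). The scFvs were displayed on barcoded MATa yeast, the peptide on MATalpha yeast. Binding brings cells together so that they mate, and sequencing counts the barcode pairs among the diploids. The ratio of observed to expected reads was calibrated, replicate by replicate, on BCL2-family standards whose Kd was known from biolayer interferometry. The assay was run in six technical replicates.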

The whole VH of each variant is written out.
Each Kd is an estimate from the mating assay, the geometric mean of the replicates in which the pair was seen; lower is stronger.
A pair that was not seen in any replicate is written "not detected"; this usually means weak binding, but a binder can also be missed.
The authors averaged sequences with at least three values out of six and counted those with two or fewer as poor binders.
Three control strains display no target. For all heavy chain designs, 1% of the pairings with them gave a signal, with a median of 120 nM and one signal in twenty below 7.0 nM, so weak values seen in few replicates may be background.
The range of this assay differs from that of the first round, and the authors advise against merging the two.
The parent sequence was in this pool as ten entries: three were never detected, three once, and four in most replicates, with averages from 2.2 nM to 240 nM.

Kd (apparent),seen in,VH,group
10 nM,2/6,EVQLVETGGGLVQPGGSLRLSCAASGFDLNEYGISWVRQAPGKGPEWVSVIYADGMRTFYADSVKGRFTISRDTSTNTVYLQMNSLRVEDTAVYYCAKGNNAGTFDLWGQGTLVTVSS,En_Gen
12 nM,6/6,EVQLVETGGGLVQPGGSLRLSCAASGFDLNEYGISWVRQAPGKGPEWVSVIYADGRRTYYIDSVKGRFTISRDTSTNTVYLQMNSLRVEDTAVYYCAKGTNAGTFDVWGQGTLVTVSS,En_HC
not detected,0/6,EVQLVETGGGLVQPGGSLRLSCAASGFDLDKYGISWVRQAPGKGPEWVSVIYADGSRSVYADDVKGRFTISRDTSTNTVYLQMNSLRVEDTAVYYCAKGMLGATFGVWGQGTLVTVSS,En_Gibbs
37 nM,6/6,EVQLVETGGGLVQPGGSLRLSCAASGFSLNKYGISWVRQAPGKGPEWVSVIYSDGRRTFYGDSVKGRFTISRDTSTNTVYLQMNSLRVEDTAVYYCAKGQAAGTFDSWGQGTLVTVSS,GPLM_Gen
not detected,0/6,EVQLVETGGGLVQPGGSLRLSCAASGFTLNSYGISWVRQAPGKGPEWVSVIYADGRRTFYGDSVKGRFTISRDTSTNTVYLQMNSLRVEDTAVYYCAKGRAAGTNKSWGQGTLVTVSS,En_HC
1.0 nM,6/6,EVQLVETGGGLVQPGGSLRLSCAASGFDLNEYGISWVRQAPGKGPEWVSVIYADGKRTAYADSVKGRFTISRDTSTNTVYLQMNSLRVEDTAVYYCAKGGNAGTFDMWGQGTLVTVSS,En_Gen
not detected,0/6,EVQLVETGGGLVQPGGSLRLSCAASGFTGNEYGISWVRQAPGKGPEWVSVIYSDGRQTFYTDSVKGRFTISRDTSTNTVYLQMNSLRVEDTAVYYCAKGRFAGTFDSWGQGTLVTVSS,Rand
2.5 nM,5/6,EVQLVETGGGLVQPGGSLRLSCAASGFDLNSYGISWVRQAPGKGPEWVSVIYSDGRRTFYDDSVKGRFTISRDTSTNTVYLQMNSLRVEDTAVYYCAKGNAAGTFDSWGQGTLVTVSS,GP_Gen
270 pM,6/6,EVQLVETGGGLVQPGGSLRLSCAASGFDLESYGISWVRQAPGKGPEWVSVIYADGRRTFYADKVKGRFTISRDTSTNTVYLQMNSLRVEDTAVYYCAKGGNAGTFDIWGQGTLVTVSS,En_HC
not detected,0/6,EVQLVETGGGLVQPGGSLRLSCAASGFTLNSYDISWVRQAPGKGPEWVSVIYSDGRRTFYDDSVKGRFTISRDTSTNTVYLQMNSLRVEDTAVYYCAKGQLAGTFDSWGQGTLVTVSS,Rand
not detected,0/6,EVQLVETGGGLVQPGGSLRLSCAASTFTNNSYGISWVRQAPGKGPEWVSVIYSDGRRTFYGDSVKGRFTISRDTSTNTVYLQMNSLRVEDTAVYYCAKGRAMGTFVSWGQGTLVTVSS,Ctrl
51 nM,3/6,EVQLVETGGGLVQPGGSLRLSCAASGFSLNSYGISWVRQAPGKGPEWVSVIYSDGRRTFYGDKVKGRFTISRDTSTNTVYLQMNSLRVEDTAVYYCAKGRTAGTFDSWGQGTLVTVSS,GPLM_Gen
1.1 nM,1/6,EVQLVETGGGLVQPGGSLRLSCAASGFELNSYGISWVRQAPGKGPEWVSVIYSDGKRTFYIDSVKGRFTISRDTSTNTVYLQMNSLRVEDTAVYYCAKGKAAGTFDSWGQGTLVTVSS,GP_Gen
not detected,0/6,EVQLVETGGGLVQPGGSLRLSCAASGFTLNSYGISWVRQAPGKGPEWVSVIYSDGRRTFYGDSVKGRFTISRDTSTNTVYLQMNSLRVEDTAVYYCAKGRAAGTFNSWGQGTLVTVSS,Ctrl
not detected,0/6,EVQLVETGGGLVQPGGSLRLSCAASGFNLNSYGISWVRQAPGKGPEWVSVIYSDGRRTFYGDSVKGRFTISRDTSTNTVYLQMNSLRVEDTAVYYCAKGRTAGTFDCWGQGTLVTVSS,GPLM_Gibbs
3.1 nM,6/6,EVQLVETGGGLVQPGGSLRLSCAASGFQLNEYGISWVRQAPGKGPEWVSVIYSDGRRTFYGDSVKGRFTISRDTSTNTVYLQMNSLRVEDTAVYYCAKGRAAGTFDVWGQGTLVTVSS,GP_HC
60 nM,5/6,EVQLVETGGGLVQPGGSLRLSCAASGFTLNMYGISWVRQAPGKGPEWVSVIYADGLRTFYGDSVKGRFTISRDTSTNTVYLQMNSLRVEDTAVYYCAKGLAAGTFDSWGQGTLVTVSS,Ctrl
470 pM,6/6,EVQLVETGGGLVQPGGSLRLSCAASGFDLNEYGISWVRQAPGKGPEWVSVIYADGIRTFYADSVKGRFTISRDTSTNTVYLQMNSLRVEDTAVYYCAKGNTAGTFDSWGQGTLVTVSS,En_HC
not detected,0/6,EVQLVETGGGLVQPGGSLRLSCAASGFDLGEYGISWVRQAPGKGPEWVSVIYADGRRKGYSDSVKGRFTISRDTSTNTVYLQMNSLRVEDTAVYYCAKGINSINVTDWGQGTLVTVSS,En_Gibbs
17 nM,5/6,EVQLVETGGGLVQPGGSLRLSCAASGFTLNEYGISWVRQAPGKGPEWVSVIYSDGRRTFYMDDVKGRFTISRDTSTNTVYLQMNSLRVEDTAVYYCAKGEAAGTFKSWGQGTLVTVSS,GP_HC
330 pM,6/6,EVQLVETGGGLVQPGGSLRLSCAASGFDLDEYGISWVRQAPGKGPEWVSVIYADGRRTAYADSVKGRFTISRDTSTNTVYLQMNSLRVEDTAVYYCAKGEVAGTFDVWGQGTLVTVSS,En_Gen
2.3 nM,6/6,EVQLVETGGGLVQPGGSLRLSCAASGFTLNSYGISWVRQAPGKGPEWVSVIYADGRRCFYGDAVKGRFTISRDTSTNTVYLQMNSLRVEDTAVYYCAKGRAAGTFISWGQGTLVTVSS,Ctrl
7.4 nM,4/6,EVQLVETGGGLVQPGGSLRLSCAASGFNLNSYGISWVRQAPGKGPEWVSVIYSDGRRTFYIDSVKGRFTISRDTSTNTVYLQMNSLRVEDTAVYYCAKGHVAGTFDSWGQGTLVTVSS,GPLM_Gibbs
930 pM,6/6,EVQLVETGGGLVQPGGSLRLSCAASGFDLNSYGISWVRQAPGKGPEWVSVIYSDGRRTVYGDSVKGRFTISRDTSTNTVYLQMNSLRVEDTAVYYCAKGRNAGTFDSWGQGTLVTVSS,GP_Gen
not detected,0/6,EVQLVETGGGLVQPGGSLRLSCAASGFGMEEFGISWVRQAPGKGPEWVSVIYADGQRLAYADEVKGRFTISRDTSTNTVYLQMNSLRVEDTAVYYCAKGENAGSFDIWGQGTLVTVSS,En_Gibbs

The 3 strongest on average among those seen in every replicate, once more:

VH,group,Kd (apparent),seen in
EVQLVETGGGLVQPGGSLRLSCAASGFDLESYGISWVRQAPGKGPEWVSVIYADGRRTFYADKVKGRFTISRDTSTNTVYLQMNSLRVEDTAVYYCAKGGNAGTFDIWGQGTLVTVSS,En_HC,270 pM,6/6
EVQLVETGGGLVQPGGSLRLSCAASGFDLDEYGISWVRQAPGKGPEWVSVIYADGRRTAYADSVKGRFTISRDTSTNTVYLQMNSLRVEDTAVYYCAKGEVAGTFDVWGQGTLVTVSS,En_Gen,330 pM,6/6
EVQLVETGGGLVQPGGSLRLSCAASGFDLNEYGISWVRQAPGKGPEWVSVIYADGIRTFYADSVKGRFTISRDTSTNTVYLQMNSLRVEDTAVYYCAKGNTAGTFDSWGQGTLVTVSS,En_HC,470 pM,6/6